For the test, the target named is T1, Glycylpeptide N-tetradecanoyltransferase (Plasmodium falciparum (isolate 3D7), UniProt Q8ILW6).
T1 sequence (Q8ILW6 whole entry): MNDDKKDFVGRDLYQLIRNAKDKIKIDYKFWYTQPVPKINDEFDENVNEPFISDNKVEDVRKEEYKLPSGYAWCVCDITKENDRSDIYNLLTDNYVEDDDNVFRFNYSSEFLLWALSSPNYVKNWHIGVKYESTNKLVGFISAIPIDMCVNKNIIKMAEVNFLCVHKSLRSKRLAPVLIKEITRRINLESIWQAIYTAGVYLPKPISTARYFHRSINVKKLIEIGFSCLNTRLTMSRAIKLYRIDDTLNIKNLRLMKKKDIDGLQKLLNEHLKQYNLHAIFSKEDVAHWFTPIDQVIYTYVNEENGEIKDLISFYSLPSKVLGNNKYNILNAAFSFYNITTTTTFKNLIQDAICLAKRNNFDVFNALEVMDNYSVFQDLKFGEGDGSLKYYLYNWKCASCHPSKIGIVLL
Nature of the test: Inhibition of Plasmodium falciparum N-myristoyltransferase using [3H]-myristoyl-CoA and GLYVSRLFNRLFQKK(Biotin)-NH2 as substrate after 30 mins scintillation proximity assay.

As for `Cc1c(-c2nc(Cc3ccccc3)no2)oc2cccc(OC3CCNCC3)c12`, the IC50 was found to be 2000 nM.

Source of the values: ChEMBL document CHEMBL2169879, “Design and synthesis of inhibitors of Plasmodium falciparum N-myristoyltransferase, a promising target for antimalarial drug discovery” (J Med Chem, 2012).
